## Yeast mating assay 2: variants of the scFv Ab-95

Values reported by Engelhart et al. 2022, doi:10.1038/s41597-022-01779-4 (FLAb copy).

Target: peptide PDVDLGDISGINAS, taken from heptad repeat 2 (HR2) of SARS-CoV-2 spike.

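Phage display of a naive human antibody library on the peptide gave the parent. In library AAYL52, one, two or three CDR residues were substituted; doubles and triples were drawn at random. AlphaSeq pools MATa yeast showing the antibodies with MATalpha yeast showing the peptide. Mating (16 h, 30 °C) was followed by selection of diploids and sequencing of their barcodes. Read counts were normalised to the haploid input and turned into Kd by a linear fit to BCL2-family pairs of known affinity, for each replicate. Mating was done three times.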

Parent: Ab-95, a human scFv built as VH, a 15-residue (Gly4Ser)3 linker, VL. Only the CDRs of the light chain vary.
VH: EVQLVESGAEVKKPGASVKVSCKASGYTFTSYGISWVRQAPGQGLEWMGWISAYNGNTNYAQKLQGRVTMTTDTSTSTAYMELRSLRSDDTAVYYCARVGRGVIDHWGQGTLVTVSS
VL: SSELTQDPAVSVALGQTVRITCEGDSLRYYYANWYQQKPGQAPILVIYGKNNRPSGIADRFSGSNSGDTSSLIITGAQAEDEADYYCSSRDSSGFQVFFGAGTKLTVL

Positions count from residue 1 of the parent VL; L27R puts R in place of L. This list gathers variants with a substitution at G94 (VL, numbered from residue 1). Scale: log10 of Kd in nM, estimated from mating counts; low values are strong binders. The mean shown is taken over the replicates in which the pair was detected. A pair that was not seen in any replicate is written "nd"; this usually means weak binding, but a binder can also be missed. In this assay the parent's reference entry averaged 2.31; its copy inside this library read 2.25. Nonspecific signal, from three strains lacking the peptide, appeared in 28% of pairings of library AAYL52, centred on 3.91 (5% of these signals below 2.90); values are not corrected for it. The control count says in how many pairings with the empty strains this scFv gave a signal.

With L27R/N33K/G94Q the result was 4.88 (1 of 3 replicates; controls 3 of 9). Variant Y30I/G49F/G94N showed 3.42 (1 of 3 replicates; controls 2 of 9). For E23C/S92M/G94R, the assay gave 2.98 (3 of 3 replicates; controls 2 of 9). Variant L27T/G94L/F95I gave 5.59 (2 of 3 replicates; controls 4 of 9). Variant R28P/S89G/G94V showed nd (0 of 3 replicates; controls 1 of 9).

With K50V/G94W/V97F the result was nd (0 of 3 replicates; controls 0 of 9). Variant K50R/P54F/G94P gave 3.82 (3 of 3 replicates; controls 5 of 9). For N33F/G94P/Q96G, the assay gave 4.42 (1 of 3 replicates; controls 1 of 9). For N52V/S92D/G94S, the assay gave 4.35 (2 of 3 replicates; controls 3 of 9). Variant G24A/S89N/G94L gave 3.96 (1 of 3 replicates; controls 2 of 9).

For Y30C/S93R/G94W, the assay gave 3.26 (1 of 3 replicates; controls 2 of 9). With S92E/G94F/F98Y the result was 3.16 (1 of 3 replicates; controls 0 of 9). With R28D/R90Y/G94T the result was 3.31 (3 of 3 replicates; controls 2 of 9). Variant E23N/S88W/G94N showed 2.36 (3 of 3 replicates; controls 5 of 9). Variant S26L/G94K showed 5.17 (2 of 3 replicates; controls 3 of 9).

For N52C/G94Q/F98W, the assay gave 4.36 (1 of 3 replicates; controls 1 of 9). For A32C/S92W/G94T, the assay gave nd (0 of 3 replicates; controls 1 of 9). For S89W/S93R/G94V, the assay gave nd (0 of 3 replicates; controls 1 of 9). Variant D91K/G94W/F98T showed nd (0 of 3 replicates; controls 0 of 9). For Y30T/K50G/G94Y, the assay gave 2.91 (3 of 3 replicates; controls 4 of 9).

Variant E23G/R28P/G94L gave 2.51 (3 of 3 replicates; controls 2 of 9). For K50G/G94A, the assay gave 2.89 (3 of 3 replicates; controls 3 of 9). With D25A/G94H/F95A the result was 2.12 (3 of 3 replicates; controls 3 of 9). Variant E23I/G24E/G94F showed 2.86 (1 of 3 replicates; controls 2 of 9). Variant G24S/G94C/Q96S showed 3.24 (3 of 3 replicates; controls 3 of 9).

For S55G/R90Y/G94Y, the assay gave 2.78 (3 of 3 replicates; controls 1 of 9). Variant N51D/G94W/Q96H showed 2.56 (3 of 3 replicates; controls 4 of 9). With S89E/G94M/V97A the result was 3.38 (2 of 3 replicates; controls 5 of 9). Variant Y29W/K50Q/G94H gave 3.02 (3 of 3 replicates; controls 4 of 9). For R28L/A32D/G94P, the assay gave 4.38 (2 of 3 replicates; controls 3 of 9).

Variant K50R/S55R/G94F gave 3.79 (3 of 3 replicates; controls 1 of 9). Variant D25W/D91R/G94A showed 4.11 (2 of 3 replicates; controls 4 of 9). Variant G24T/N51M/G94R gave 3.57 (1 of 3 replicates; controls 1 of 9). Variant S89R/S93Y/G94Q gave 4.30 (3 of 3 replicates; controls 4 of 9). For G24Y/S26H/G94T, the assay gave 4.15 (2 of 3 replicates; controls 2 of 9).

For L27N/Y29S/G94M, the assay gave 2.80 (3 of 3 replicates; controls 3 of 9). For Y31N/N51K/G94P, the assay gave 2.42 (3 of 3 replicates; controls 4 of 9). For R28S/N52T/G94F, the assay gave 2.94 (3 of 3 replicates; controls 3 of 9). Variant L27Y/G94T showed 3.15 (1 of 3 replicates; controls 1 of 9). Variant L27R/P54R/G94D showed 4.27 (2 of 3 replicates; controls 4 of 9).

For N33P/P54I/G94K, the assay gave 3.56 (2 of 3 replicates; controls 0 of 9). With N52T/R53V/G94C the result was 1.87 (3 of 3 replicates; controls 2 of 9). Variant G94M/F95K showed 3.24 (3 of 3 replicates; controls 1 of 9). Variant N33Q/K50E/G94M showed 3.58 (3 of 3 replicates; controls 1 of 9). Variant L27W/G94T/Q96E showed 4.34 (1 of 3 replicates; controls 2 of 9).

Variant E23T/G94R/F98Y showed 3.61 (2 of 3 replicates; controls 2 of 9). With N52G/S55W/G94R the result was 5.17 (2 of 3 replicates; controls 5 of 9). With S26A/D91P/G94Q the result was 3.51 (3 of 3 replicates; controls 2 of 9). For R28S/G94F/Q96W, the assay gave 3.36 (1 of 3 replicates; controls 2 of 9). Variant R90T/G94L/F95I showed nd (0 of 3 replicates; controls 0 of 9).

With N33M/G94P/F95S the result was 4.32 (2 of 3 replicates; controls 7 of 9). Variant N52M/G94K gave 1.75 (3 of 3 replicates; controls 3 of 9).

4 of these entries, quoted again:

The variant N33P/P54I/G94K showed 3.56 (2 of 3 replicates; controls 0 of 9).
The variant Y29W/K50Q/G94H showed 3.02 (3 of 3 replicates; controls 4 of 9).
The variant N52M/G94K showed 1.75 (3 of 3 replicates; controls 3 of 9).
The variant E23C/S92M/G94R showed 2.98 (3 of 3 replicates; controls 2 of 9).